In patent publication US12139487B2, “Compounds and uses thereof” (Foghorn Therapeutics Inc., priority 2022, dated 2024):

Tested on: uveal melanoma and hematologic cancer cell lines versus other tested cell lines
Assay: Growth of uveal melanoma, hematological and other cancer cell lines with Compound A (Cell-titer glo, day 3 and day 7, GI50)
Assay type: cell-based
Settings: uveal melanoma and hematologic cancer cell lines vs other tested cell lines; 0 to 10 micromolar; FIG. 1
Experimental: Procedure: Uveal melanoma cell lines (92-1, MP41, MP38, MP46), prostate cancer cell lines (LNCAP), lung cancer cell lines (NCI-H1299), and immortalized embryonic kidney lines (HEK293T) were plated into 96 well plates with growth media (see Table 9). […] Cells were incubated at 37 degrees Celsius for 3 days. After three days of treatment, the media was removed from the cells and 30 microliters of TrypLE (Gibco) was added to cells for 10 minutes. Cells were detached from the plates and resuspended with the addition of 170 microliters of growth media. Cells from two DMSO-treated control wells were counted, and the initial number of cells plated at the start of the experiment, were re-plated into fresh-compound containing plates for an additional four days at 37 degrees Celsius. At day 7, cells were harvested as described above. On day 3 and day 7, relative cell growth was measured by the addition of Cell-titer glo (Promega) and luminescence was measured on an Envision plate reader (Perkin Elmer). […] At the time of cell splitting on days 3 and 7, cells were split into new 96 well plates, and fresh compound was added four hours after re-plating.

With CSCC[C@H](NC(=O)c1ccc(N)cc1)C(=O)Nc1nc(-c2cccc(-c3ccncc3)c2)cs1 [Compound A] the “sensitivity of cell lines to BRG1/BRM inhibition (growth, GI50)” value was “more sensitive to BRG1/BRM inhibition than the other tested cell lines”.
